Test results as given in patent US20240279205A1, “NOVEL BENZIMIDAZOLE DERIVATIVE” (Carna Biosciences, Inc., priority 2020, published 2024).
pIC50: −log10 of the molar value.

By UniProt entry, the sequences of proteins in these tests, tags left out.
UniProt Q86WV6, whole entry H232R: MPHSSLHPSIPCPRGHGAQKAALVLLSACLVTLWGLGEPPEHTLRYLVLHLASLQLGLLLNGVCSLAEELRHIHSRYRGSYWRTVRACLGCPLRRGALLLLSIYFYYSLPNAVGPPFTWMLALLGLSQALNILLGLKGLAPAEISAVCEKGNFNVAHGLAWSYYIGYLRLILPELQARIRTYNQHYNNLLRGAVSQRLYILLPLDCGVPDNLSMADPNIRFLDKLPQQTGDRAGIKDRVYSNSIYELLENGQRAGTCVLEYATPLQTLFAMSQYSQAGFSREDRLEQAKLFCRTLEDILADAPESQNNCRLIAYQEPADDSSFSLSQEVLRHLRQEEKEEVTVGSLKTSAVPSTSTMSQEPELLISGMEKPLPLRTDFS

Target: human STING (hSTING) (Homo sapiens, UniProt Q86WV6)
Assay: Inhibition test of intracellular human STING (hSTING) pathway using SEAP reporter cells (HEK-Blue ISG), stimulation with Compound 3
Conditions: read-out: hSTING inhibitory activity, Compound 3 10 nM stimulation, 21 hours
Protocol: Inhibition test of intracellular human STING (hSTING) pathway using reporter cells
Since STING activates the transcription factor IRF3 upon ligand stimulation, the activity of STING can be evaluated by a reporter assay using a secretory alkaline phosphatase (SEAP reporter) integrated downstream of an IRF-inducible promoter.
That is, the hSTING inhibitory activity of the test compound was evaluated using HEK-Blue™MISG cells (manufactured by Invivogen, #hkb-isg-1) incorporating a SEAP reporter. Activation of hSTING was performed by stimulation with the small molecule ligand Compound 3 as described in the literature (Ramanjulu, J. M., et al., Nature. 2018, 564 (7736), 439-443). HEK-Blue™MISG cells were seeded in a 96-well plate and cultured overnight at 37° C. in a 5% CO2 incubator. […] After collecting the culture supernatant of each well, the reporter activity was measured by color development reaction with alkaline phosphatase.
The reporter activity of the test compound non-addition and Compound 3 addition group was set to 100%, and the reporter activity of the test compound non-addition and Compound 3 non-addition group was set to 0%. The IC50 value was determined by regression analysis of the inhibitory rate determined from the reporter activity at each compound concentration and the test compound concentration (logarithm).

Cn1c(Nc2c[nH]c3ccc(Cl)nc23)nc2ccc(Br)cc21
pIC50: < 5.00
